Measured values reported in publication PMC7253423, “Quassinoid analogs with enhanced efficacy for treatment of hematologic malignancies target the PI3Kγ isoform” (Communications Biology, 2020).

How the values were obtained:
NB-4 cells = assay: Cell viability assay (CellTiter-Glo luminescence); assay type: cell-based, human; details: Fig 3a
Method: (§1) 5000 cells as indicated were cultured in 96-well plate with 100 μl of media. On the next day, Brusatol or associated analogs were added once to the cells without media change. After treatment, the cells were incubated with 100 μl buffer for 10 min at room temperature following the instructions of CellTiter-Glo kit (Promega, Madison, WI). Luminescence was detected using a multi-mode reader Cytation 5 (BioTek, Winooski, VT). Brusatol or its analogs are dissolved in 100% ethanol and diluted in 1 × PBS for treatment. Two independent experiments done in duplicates were performed.

K562 cells = assay: Cell viability assay (CellTiter-Glo luminescence); assay type: cell-based, human; details: for Relative cell viability over time: relative to 0, Fig 3b; for Relative cell viability: Fig 3a
Method: as §1

RPMI-8226 cells = assay: Cell viability assay (CellTiter-Glo luminescence); assay type: cell-based, human; details: Fig 3a
Method: as §1

[1] = system: C17 nasopharyngeal carcinoma cells; assay: Cell viability assay (CellTiter-Glo luminescence); assay type: cell-based, human; details: Fig 4a
Method: as §1

MOLM14 cells = assay: Cell viability assay (CellTiter-Glo luminescence); assay type: cell-based, human; details: for Relative cell viability: Fig 3a; for relative cell viability (Fig 6e), replicates: fraction of 0 μM control
Method: as §1

[2] = In vivo toxicity test, survival rate; parameters: species or system NOD/SCID mice; details: for survival event status per mouse (Fig 6i; 1 = event/death, 0 = censored): 10mg/kg
Method: To determine the toxicity of Brusatol, #15 and #26 compounds, 6-week-old male NOD.CB17-Prkdc^scid/J (NOD/SCID) mice (Jackson Labs, Bar Harbor, ME, USA; 4 mice per group) were intraperitoneally injected with a maximum dose of 10 mg/kg of Brusatol, #15 or #26 compound every other day (three times per week). The survival rate was recorded to monitor the tolerance of the compounds in these mice.

Brusatol
Relative cell viability (NB-4 cells; NB-4, Con. 0.000244141 μM): 1.057 and 0.6748
Relative cell viability (NB-4 cells; NB-4, Con. 0.000976563 μM): 0.9903 and 0.9953
Relative cell viability (NB-4 cells; NB-4, Con. 0.00390625 μM): 0.9731 and 0.8212
Relative cell viability (NB-4 cells; NB-4, Con. 0.015625 μM): 0.09728 and 0.08892
Relative cell viability (NB-4 cells; NB-4, Con. 0.0625 μM): 0.04557 and 0.04445
Relative cell viability (NB-4 cells; NB-4, Con. 0.25 μM): 0.0343 and 0.02988
Relative cell viability (NB-4 cells; NB-4, Con. 1 μM): 0.03379 and 0.02721
Relative cell viability over time (K562 cells; K562, 24hrs): 1.168 and 1.204
Relative cell viability over time (K562 cells; K562, 48hrs): 0.965 and 0.7565
Relative cell viability over time (K562 cells; K562, 72hrs): 0.5464 and 0.5022
Relative cell viability (K562 cells; K562, Con. 0.000244141 μM): 1.187 and 1.19
Relative cell viability (K562 cells; K562, Con. 0.000976563 μM): 0.9766 and 0.928
Relative cell viability (K562 cells; K562, Con. 0.00390625 μM): 1.17 and 1.142
Relative cell viability (K562 cells; K562, Con. 0.015625 μM): 0.292 and 0.2204
Relative cell viability (K562 cells; K562, Con. 0.0625 μM): 0.1449 and 0.1363
Relative cell viability (K562 cells; K562, Con. 0.25 μM): 0.1177 and 0.1097
Relative cell viability (K562 cells; K562, Con. 1 μM): 0.1126 and 0.1177
Relative cell viability (RPMI-8226 cells; RPMI-8226, Con. 0.000244141 μM): 1.059 and 0.8864
Relative cell viability (RPMI-8226 cells; RPMI-8226, Con. 0.000976563 μM): 0.9317 and 0.797
Relative cell viability (RPMI-8226 cells; RPMI-8226, Con. 0.00390625 μM): 0.4331 and 0.4665
Relative cell viability (RPMI-8226 cells; RPMI-8226, Con. 0.015625 μM): 0.09043 and 0.07441
Relative cell viability (RPMI-8226 cells; RPMI-8226, Con. 0.0625 μM): 0.06279 and 0.05226
Relative cell viability (RPMI-8226 cells; RPMI-8226, Con. 0.25 μM): 0.05297 and 0.05028
Relative cell viability (RPMI-8226 cells; RPMI-8226, Con. 1 μM): 0.05158 and 0.05215
Relative cell viability ([1]; C17, Con. 0.000244141 μM): 0.9411 and 0.914
Relative cell viability ([1]; C17, Con. 0.000976563 μM): 1.087 and 0.9752
Relative cell viability ([1]; C17, Con. 0.00390625 μM): 1.086 and 1.022
Relative cell viability ([1]; C17, Con. 0.015625 μM): 1.067 and 1.035
Relative cell viability ([1]; C17, Con. 0.0625 μM): 0.8854 and 0.8649
Relative cell viability ([1]; C17, Con. 0.25 μM): 0.6147 and 0.5533
Relative cell viability ([1]; C17, Con. 1 μM): 0.4452 and 0.481
Relative cell viability (MOLM14 cells; MOLM14, Con. 0.000244141 μM): 1.093 and 0.9373
Relative cell viability (MOLM14 cells; MOLM14, Con. 0.000976563 μM): 0.6464 and 0.5402
relative cell viability (Fig 6e), replicates (MOLM14 cells; MOLM14, Con. 0.00244141 μM): 1.084 and 0.9426
Relative cell viability (MOLM14 cells; MOLM14, Con. 0.00390625 μM): 0.09731 and 0.09357
relative cell viability (Fig 6e), replicates (MOLM14 cells; MOLM14, Con. 0.00976562 μM): 1.067 and 0.836
Relative cell viability (MOLM14 cells; MOLM14, Con. 0.015625 μM): 0.03685 and 0.03647
relative cell viability (Fig 6e), replicates (MOLM14 cells; MOLM14, Con. 0.0390625 μM): 0.4235 and 0.3524
Relative cell viability (MOLM14 cells; MOLM14, Con. 0.0625 μM): 0.03245 and 0.03429
relative cell viability (Fig 6e), replicates (MOLM14 cells; MOLM14, Con. 0.15625 μM): 0.1035 and 0.1208
Relative cell viability (MOLM14 cells; MOLM14, Con. 0.25 μM): 0.02602 and 0.02786
relative cell viability (Fig 6e), replicates (MOLM14 cells; MOLM14, Con. 0.625 μM): 0.03957 and 0.03909
Relative cell viability (MOLM14 cells; MOLM14, Con. 1 μM): 0.02218 and 0.02021
relative cell viability (Fig 6e), replicates (MOLM14 cells; MOLM14, Con. 2.5 μM): 0.04357 and 0.03929
relative cell viability (Fig 6e), replicates (MOLM14 cells; MOLM14, Con. 10 μM): 0.05298 and 0.04635
toxicity in vivo (survival) ([2]; 10 mg/kg intraperitoneally every other day, monitored 24 days, 4 mice per group): obviously lethal for the majority of mice within the first 4 days
survival event status per mouse (Fig 6i; 1 = event/death, 0 = censored) ([2]; Days Post-treatment 2): 1
survival event status per mouse (Fig 6i; 1 = event/death, 0 = censored) ([2]; Days Post-treatment 3): 1
survival event status per mouse (Fig 6i; 1 = event/death, 0 = censored) ([2]; Days Post-treatment 24): 0

Values joined by “and” are separate entries in the source; they are usually repeats but may differ in a detail not shown here. Identical values can stand only once.
